Results taken from ChEMBL document CHEMBL3046886, “Action of benzimidazolo-piperazinyl derivatives on dopamine receptors” (Med Chem Res, 2013).

Species: Rattus norvegicus
Experiment: Rattus norvegicus (rat)io of Ki for low affinity antagonist binding site of D2 receptor to high affinity agonist binding site of D2 receptor in Rattus norvegicus (rat) striatal membrane
Conditions: Striatum

A Ratio Ki of 11 was found for `Oc1nc2c(N3CCN(Cc4ccccc4)CC3)cccc2[nH]1` in this work.
